scFv variants of Ab-95 (light chain) against a SARS-CoV-2 spike peptide

Reference: Engelhart et al. 2022, doi:10.1038/s41597-022-01779-4. File: FLAb, binding data.

Target: peptide PDVDLGDISGINAS, taken from heptad repeat 2 (HR2) of SARS-CoV-2 spike.

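Phage display of a naive human antibody library on the peptide gave the parent. The library (AAYL52) carries one to three amino acid substitutions per variant, with no insertions or deletions. The scFvs were displayed on barcoded MATa yeast, the peptide on MATalpha yeast. After mating in shaken culture at 30 °C for 16 h, diploids were selected and their barcode pairs sequenced. A regression on co-assayed BCL2-family reference pairs converts the normalised counts of each replicate to an apparent Kd. The assay was run in three technical replicates.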

The variants keep the heavy chain, the linker and the frameworks of Ab-95 (scFv order VH, a (GGGGS)3 linker, VL).
VH: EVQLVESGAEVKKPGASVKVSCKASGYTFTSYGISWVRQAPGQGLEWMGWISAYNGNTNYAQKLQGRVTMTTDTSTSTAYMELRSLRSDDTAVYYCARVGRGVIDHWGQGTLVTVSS
VL: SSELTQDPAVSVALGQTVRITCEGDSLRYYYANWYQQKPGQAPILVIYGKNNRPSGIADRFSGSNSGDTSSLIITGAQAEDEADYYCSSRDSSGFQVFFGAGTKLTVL

Each variant is given by its three light chain CDRs, as the data file delimits them; those of the parent are EGDSLRYYYAN, GKNNRPS, SSRDSSGFQVF.
Affinities are written as log10 Kd with Kd in nM; a lower number is a better binder.
"n.d." marks a missing value. The strain was present, yet no cells mated with the target were sequenced in that replicate, which points to weak or no binding.

| CDR-L1 | CDR-L2 | CDR-L3 | log10 Kd (nM) by replicate | control signals |
|---|---|---|---|---|
| EGDSLRYYYAN | SKNNRYS | SSRDSSGFQVE | n.d. n.d. n.d. | 1 of 9 (3.00) |
| EGDSLIVYYAN | GKNNRPS | SSRDSSHFQVF | n.d. n.d. 2.94 | 1 of 9 (2.91) |
| EGDSLRNYYAN | RKNNRPS | SSRDSSGQQVF | n.d. n.d. n.d. | 1 of 9 (3.92) |
| EGDSLRYYYAN | GGNNRPS | QSRSSSGFQVF | 4.06 3.49 4.35 | 6 of 9 (3.41) |
| EGDSLRYYYAN | GWNNRPS | SSRDMSGFQVA | 3.63 n.d. n.d. | 2 of 9 (3.89) |
| YGDSLRYYYAN | GCNNRPR | SSRDSSGFQVF | 3.17 3.92 4.63 | 4 of 9 (4.60) |
| EGDSLRYYYAF | GKNNRPS | SSCDSSWFQVF | 3.34 3.26 3.27 | 4 of 9 (3.71) |
| EGDSLCYYYAN | GKNNRPS | ASRFSSGFQVF | 2.59 2.48 n.d. | 4 of 9 (3.70) |
| EGDSLRYYFAN | GKNNRPK | SGRDSSGFQVF | 2.86 2.20 2.52 | 2 of 9 (2.97) |
| EGDSDRYYYAN | GKNNLPS | SSRDSSGCQVF | 4.14 n.d. n.d. | 1 of 9 (2.96) |
| EDDSLRYYYAN | GKNNRPS | SSRDSWGFQVF | n.d. 4.04 n.d. | 2 of 9 (3.94) |
| EGDSLRYYYIN | GKNARPS | SSRDSSGFQKF | 4.48 4.30 n.d. | 0 of 9 |
| EGDSLRYYYAN | GKNNRPS | SSRDSGGFIDF | 5.55 3.19 3.38 | 0 of 9 |
| EGDSLRYYYAN | GKNNRPS | WSRDSSSFQVT | 2.01 2.45 2.64 | 2 of 9 (3.51) |
| EGDSLRYYYAN | GVNNRPW | SSRDSSGFDVF | 3.89 4.26 4.13 | 3 of 9 (3.77) |
| EGDSWRYYYAN | GKNNRPS | SSIDSLGFQVF | n.d. n.d. n.d. | 3 of 9 (4.43) |
| EGDSLKYQYAN | GKNNRPS | SSRDSSGFQVA | 1.12 1.05 0.71 | 4 of 9 (5.14) |
| EGDSLRYPYAN | IKNNRPS | SSDDSSGFQVF | 4.31 n.d. n.d. | 0 of 9 |
| EGDSLRYKYAN | CKNNRNS | SSRDSSGFQVF | 4.82 4.06 n.d. | 7 of 9 (3.81) |
| EGDSLRYVYAA | GKNNRIS | SSRDSSGFQVF | n.d. n.d. n.d. | 0 of 9 |
| EGDSLRYYYAC | GKNNRPS | SSRDSSGFQVW | 4.60 5.38 n.d. | 1 of 9 (3.67) |
| EGDSLRYYYAN | GKNNFPQ | SSRDSSIFQVF | 4.59 4.23 n.d. | 3 of 9 (4.14) |
| EGDSLRIYHAN | GKNNRPS | SSRDISGFQVF | 3.38 3.07 2.49 | 3 of 9 (4.08) |
| EQDSLRIYYAN | GKNNRPS | SSRDSSGFAVF | 4.50 4.53 4.56 | 2 of 9 (3.94) |
| EGDSLRYYYAN | GKNNRPS | CSRQSSGFQVF | 3.84 3.36 3.76 | 4 of 9 (3.88) |
| EGDSLRYYYAN | GKNNRPS | SSRRLSGFRVF | 2.35 2.22 2.58 | 4 of 9 (4.03) |
| EGDSLRYYYAN | GKGNRPS | SSIDSSGFCVF | 2.68 2.90 n.d. | 3 of 9 (4.95) |
| EGDSYRYFYAN | GKNNRPS | SSRDHSGFQVF | 4.33 n.d. n.d. | 3 of 9 (4.45) |
| EGDSLRYYYAN | GKNNRPS | SSMKSSGFAVF | n.d. 3.05 2.83 | 5 of 9 (3.60) |
| EGDSLRYYYAN | GKNNRPI | SSRDCRGFQVF | 2.91 3.61 4.58 | 4 of 9 (3.85) |
| EGQSLQYYYAN | GKNNRPS | SSRDSSGFQVF | 1.89 1.90 1.70 | 5 of 9 (4.05) |
| EEDSLRYYYAN | GKNNRPH | ASRDSSGFQVF | n.d. 4.66 3.84 | 2 of 9 (4.21) |
| EGDSLRYYYAN | RKNNRPS | SSRDHSGFQVF | 5.59 n.d. n.d. | 1 of 9 (4.11) |
| EGDSLRYYYAN | NKNQRPS | SSRDWSGFQVF | 2.65 2.52 2.18 | 0 of 9 |
| EGDSLRYSYAN | GKNSRPS | SSRDSSGFQVF | 0.99 0.92 0.30 | 5 of 9 (4.17) |
| EGDSLRYYPAN | EKNNNPS | SSRDSSGFQVF | 2.75 2.63 2.65 | 1 of 9 (3.56) |
| EGDSLRYYYAN | GKNNRPS | SSRDSSEFNVQ | n.d. 4.04 3.95 | 2 of 9 (4.43) |
| EEDSLRYYIAN | GKNNRPS | SSRDSSGFQVD | 4.58 2.83 3.86 | 3 of 9 (4.01) |
| EGPSLRYYYAN | GKNNRPI | SSRDSSGFQVK | 2.87 2.74 2.38 | 2 of 9 (3.86) |
| EGDSLRYYYPM | GKNNRPS | SSRKSSGFQVF | 3.20 3.01 4.28 | 3 of 9 (3.83) |
| EGDSLRYYYEN | GKNNRPS | SSHDSSGFQFF | 3.77 n.d. 3.63 | 3 of 9 (3.65) |
| EGDSLRYYYEN | GINNRPS | SSRISSGFQVF | n.d. 4.09 n.d. | 2 of 9 (4.78) |
| EGDSLRWYYAN | GKNNRAS | SSRDSSGFEVF | 4.61 n.d. 3.30 | 3 of 9 (3.51) |
| EGDSLRYYYAN | GKNNEWS | SSRDTSGFQVF | n.d. n.d. n.d. | 0 of 9 |
| EGDSLRYYYAN | FKNNRPS | SSRDYSGFQVM | n.d. n.d. n.d. | 0 of 9 |
| EGYSLRYYVAN | GKNNRPS | SSRDSSGFGVF | 4.00 3.03 3.65 | 6 of 9 (3.70) |

From the list, the first 4 with no signal in any replicate:

| CDR-L1 | CDR-L2 | CDR-L3 | log10 Kd (nM) by replicate | control signals |
|---|---|---|---|---|
| EGDSLRYYYAN | SKNNRYS | SSRDSSGFQVE | n.d. n.d. n.d. | 1 of 9 (3.00) |
| EGDSLRNYYAN | RKNNRPS | SSRDSSGQQVF | n.d. n.d. n.d. | 1 of 9 (3.92) |
| EGDSWRYYYAN | GKNNRPS | SSIDSLGFQVF | n.d. n.d. n.d. | 3 of 9 (4.43) |
| EGDSLRYVYAA | GKNNRIS | SSRDSSGFQVF | n.d. n.d. n.d. | 0 of 9 |

As a blank, each scFv also met three strains without target: over library AAYL52, 28% of these pairings were detected, typically at 3.91 and seldom below 2.90. For each scFv, signals with the empty controls are counted beside the result, with their mean in brackets.